This note sets out measurements from BindingDB's records for doi:10.1007/BF02244985 (Mayo Clinic, 1994).

Amino acid sequences for entries named in this document (tags omitted).
UniProt P08913, whole entry: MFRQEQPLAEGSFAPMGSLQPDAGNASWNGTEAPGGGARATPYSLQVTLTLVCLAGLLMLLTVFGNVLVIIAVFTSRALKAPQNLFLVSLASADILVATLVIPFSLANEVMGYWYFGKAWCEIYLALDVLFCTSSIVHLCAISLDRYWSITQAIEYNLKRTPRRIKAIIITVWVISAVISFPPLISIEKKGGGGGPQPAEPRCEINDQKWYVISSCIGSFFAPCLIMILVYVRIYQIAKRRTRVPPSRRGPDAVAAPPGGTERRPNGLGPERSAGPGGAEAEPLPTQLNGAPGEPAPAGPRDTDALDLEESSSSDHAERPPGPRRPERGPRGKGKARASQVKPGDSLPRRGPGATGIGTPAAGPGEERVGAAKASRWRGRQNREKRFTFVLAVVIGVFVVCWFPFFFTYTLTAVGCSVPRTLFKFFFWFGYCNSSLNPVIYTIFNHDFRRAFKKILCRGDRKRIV

This assay concerns the target Alpha-2A adrenergic receptor (Homo sapiens, UniProt P08913).

For the compound `CCc1nn(CCCN2CCN(c3cccc(Cl)c3)CC2)c(=O)n1CCOc1ccccc1` [2-{3-[4-(3-chlorophenyl)piperazin-1-yl]propyl}-5-ethyl-4-(2-phenoxyethyl)-2,4-dihydro-3H-1,2,4-triazol-3-one], the Ki (as a rule, a dissociation constant, usually derived from enzyme kinetics or from competition with a known ligand) was determined as 0.64 µM.
